{"sequences": {"note": "The chains behind the UniProt entries cited, without tags or fusion partners. Where a name states a change or a piece, a line headed by the entry shows the natural chain unless it says otherwise.", "UniProt P41145": "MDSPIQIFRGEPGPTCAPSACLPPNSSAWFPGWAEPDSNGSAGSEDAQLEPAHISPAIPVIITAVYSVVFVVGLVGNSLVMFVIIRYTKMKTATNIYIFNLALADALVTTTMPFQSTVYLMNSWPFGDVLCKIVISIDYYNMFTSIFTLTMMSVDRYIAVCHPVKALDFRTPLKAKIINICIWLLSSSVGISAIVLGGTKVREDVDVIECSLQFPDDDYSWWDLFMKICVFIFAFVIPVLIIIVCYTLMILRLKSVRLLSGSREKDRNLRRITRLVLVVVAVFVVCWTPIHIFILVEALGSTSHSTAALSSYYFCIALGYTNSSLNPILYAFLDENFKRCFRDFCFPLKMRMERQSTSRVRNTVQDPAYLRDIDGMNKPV"}, "source": "ChEMBL document CHEMBL1145271", "about": "(Bioorg Med Chem Lett, 2005)", "target": "Kappa-type opioid receptor (Homo sapiens, UniProt P41145)", "test": "Activation of human Opioid receptor kappa 1 expressed in chinese hamster ovary cells to enhance [35S]GTP-gamma-S, binding compared to U50,488H", "type": "functional, cell-based", "method_in_brief": "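Agonist efficacy at human κ-opioid receptor, read as enhancement of [35S]GTPγS binding and expressed as % of the maximal response to U50,488H. Mean of at least three independent experiments, each run in duplicate.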", "data": [{"smiles": "CN(C(=O)Cc1ccc(Cl)c(Cl)c1)C1CCCCC1N1CCCC1", "note": "(stereo unspecified)", "values": [{"measurement": "Efficacy", "result": 100, "unit": "%"}]}]}
